{
  "source": "patent US12390441B2",
  "about": "“Immunomodulating o-het/aryl azalides” (Zoetis Services LLC, priority 2020, dated 2025)",
  "test_system": "BRD pathogens, M. haemolytica and P. multocida",
  "experiment": "In-vitro MIC model, BRD pathogen screening panel",
  "type": "cell-based, Mannheimia haemolytica; Pasteurella multocida",
  "key": {"[1]": {"conditions": "M. haemolytica and P. multocida strains"}},
  "note": "Read-outs that look alike come from different tables or passages of the source.",
  "data": [
    {"smiles": "CC[C@H]1OC(=O)[C@H](C)[C@@H](O[C@H]2C[C@@](C)(OC)[C@@H](O)[C@H](C)O2)[C@H](C)[C@@H](O[C@@H]2O[C@H](C)C[C@H](NC)[C@H]2Oc2ccccc2)[C@](C)(O)C[C@@H](C)CN(C)[C@H](C)[C@@H](O)[C@]1(C)O", "note": "[Example A-26, (2R,3S,4R,5R,8R,10R,11R,12S,13S,14R)-2-ethyl-3,4,10-trihydroxy-13-(((2R,4R,5S,6S)-5-hydroxy-4-methoxy-4,6-dimethyltetrahydro-2H-pyran-2-yl)oxy)-3,5,6,8,10,12,14-heptamethyl-11-(((2S,3R,4S,6R)-6-methyl-4-(methylamino)-3-phenoxytetrahydro-2H-pyran-2-yl)oxy)-1-oxa-6-azacyclopentadecan-15-one]", "values": [
      {"measurement": "antibacterial / non-antibacterial classification", "value": "non-antibacterial (a compound with an MIC≥64 μg/mL for the BRD pathogens, M. haemolytica and P. multocida)"}
    ]},
    {"smiles": "CC[C@H]1OC(=O)[C@H](C)[C@@H](O)[C@H](C)[C@@H](O[C@@H]2O[C@H](C)C[C@H](NC)[C@H]2Oc2ccc(F)cc2)[C@](C)(O)C[C@@H](C)CN[C@H](C)[C@@H](O)[C@]1(C)O", "note": "[Example B-4, (2R,3S,4R,5R,8R,10R,11R,12S,13S,14R)-2-ethyl-11-(((2S,3R,4S,6R)-3-(4-fluorophenoxy)-6-methyl-4-(methylamino)tetrahydro-2H-pyran-2-yl)oxy)-3,4,10,13-tetrahydroxy-3,5,8,10,12,14-hexamethyl-1-oxa-6-azacyclopentadecan-15-one]", "values": [
      {"measurement": "antibacterial / non-antibacterial classification", "value": "non-antibacterial (a compound with an MIC≥64 μg/mL for the BRD pathogens, M. haemolytica and P. multocida)"}
    ]},
    {"smiles": "CC[C@H]1OC(=O)[C@H](C)[C@@H](O)[C@H](C)[C@@H](O[C@@H]2O[C@H](C)C[C@H](NC)[C@H]2Oc2ccc(OC)cc2)[C@](C)(O)C[C@@H](C)CN[C@H](C)[C@@H](O)[C@]1(C)O", "note": "[Example B-6, (2R,3S,4R,5R,8R,10R,11R,12S,13S,14R)-2-ethyl-3,4,10,13-tetrahydroxy-11-(((2S,3R,4S,6R)-3-(4-methoxyphenoxy)-6-methyl-4-(methylamino)tetrahydro-2H-pyran-2-yl)oxy)-3,5,8,10,12,14-hexamethyl-1-oxa-6-azacyclopentadecan-15-one]", "values": [
      {"measurement": "antibacterial / non-antibacterial classification", "value": "non-antibacterial (a compound with an MIC≥64 μg/mL for the BRD pathogens, M. haemolytica and P. multocida)"}
    ]},
    {"smiles": "CC[C@H]1OC(=O)[C@H](C)[C@@H](O)[C@H](C)[C@@H](O[C@@H]2O[C@H](C)C[C@H](N(C)C(=O)N(C)c3ccccc3)[C@H]2Oc2ccccc2)[C@](C)(O)C[C@@H](C)CN(C)[C@H](C)[C@@H](O)[C@]1(C)O", "note": "[Example C-12, 1-((2S,3R,4S,6R)-2-(((2R,3S,4R,5R,8R,10R,11R,12S,13S,14R)-2-ethyl-3,4,10,13-tetrahydroxy-3,5,6,8,10,12,14-heptamethyl-15-oxo-1-oxa-6-azacyclopentadecan-11-yl)oxy)-6-methyl-3-phenoxytetrahydro-2H-pyran-4-yl)-1,3-dimethyl-3-phenylurea]", "values": [
      {"measurement": "antibacterial / non-antibacterial classification", "setting": "[1]", "value": "non-antibacterial (a compound with an MIC≥64 μg/mL for the BRD pathogens, M. haemolytica and P. multocida)"}
    ]},
    {"smiles": "CCCNC[C@]1(O)[C@H](C)O[C@@H](O[C@H]2[C@H](C)[C@@H](O[C@@H]3O[C@H](C)C[C@H](N(C)C)[C@H]3Oc3ccccc3)[C@](C)(O)C[C@@H](C)CN[C@H](C)[C@@H](O)[C@](C)(O)[C@@H](CC)OC(=O)[C@@H]2C)C[C@@]1(C)OC", "note": "[Example E-3, (2R,3S,4R,5R,8R,10R,11R,12S,13S,14R)-11-(((2S,3R,4S,6R)-4-(dimethylamino)-6-methyl-3-phenoxytetrahydro-2H-pyran-2-yl)oxy)-2-ethyl-3,4,10-trihydroxy-13-(((2R,4R,5S,6S)-5-hydroxy-4-methoxy-4,6-dimethyl-5-((propylamino)methyl)tetrahydro-2H-pyran-2-yl)oxy)-3,5,8,10,12,14-hexamethyl-1-oxa-6-azacyclopentadecan-15-one]", "values": [
      {"measurement": "antibacterial / non-antibacterial classification", "setting": "[1]", "value": "non-antibacterial (a compound with an MIC≥64 μg/mL for the BRD pathogens, M. haemolytica and P. multocida)"}
    ]},
    {"smiles": "CCCNC[C@]1(O)[C@H](C)O[C@@H](O[C@H]2[C@H](C)[C@@H](O[C@@H]3O[C@H](C)C[C@H](NC)[C@H]3Oc3ccc(Cl)nc3)[C@](C)(O)C[C@@H](C)CN[C@H](C)[C@@H](O)[C@](C)(O)[C@@H](CC)OC(=O)[C@@H]2C)C[C@@]1(C)OC", "note": "[Example E-8, (2R,3S,4R,5R,8R,10R,11R,12S,13S,14R)-11-(((2S,3R,4S,6R)-3-((6-chloropyridin-3-yl)oxy)-6-methyl-4-(methylamino)tetrahydro-2H-pyran-2-yl)oxy)-2-ethyl-3,4,10-trihydroxy-13-(((2R,4R,5S,6S)-5-hydroxy-4-methoxy-4,6-dimethyl-5-((propylamino)methyl)tetrahydro-2H-pyran-2-yl)oxy)-3,5,8,10,12,14-hexamethyl-1-oxa-6-azacyclopentadecan-15-one]", "values": [
      {"measurement": "antibacterial / non-antibacterial classification", "setting": "[1]", "value": "non-antibacterial (a compound with an MIC≥64 μg/mL for the BRD pathogens, M. haemolytica and P. multocida)"}
    ]},
    {"smiles": "CCCNC[C@]1(O)[C@H](C)O[C@@H](O[C@H]2[C@H](C)[C@@H](O[C@@H]3O[C@H](C)C[C@H](NC)[C@H]3Oc3ncc(Cl)cn3)[C@](C)(O)C[C@@H](C)CN[C@H](C)[C@@H](O)[C@](C)(O)[C@@H](CC)OC(=O)[C@@H]2C)C[C@@]1(C)OC", "note": "[Example E-30, (2R,3S,4R,5R,8R,10R,11R,12S,13S,14R)-11-(((2S,3R,4S,6R)-3-((5-chloropyrimidin-2-yl)oxy)-6-methyl-4-(methylamino)tetrahydro-2H-pyran-2-yl)oxy)-2-ethyl-3,4,10-trihydroxy-13-(((2R,4R,5S,6S)-5-hydroxy-4-methoxy-4,6-dimethyl-5-((propylamino)methyl)tetrahydro-2H-pyran-2-yl)oxy)-3,5,8,10,12,14-hexamethyl-1-oxa-6-azacyclopentadecan-15-one]", "values": [
      {"measurement": "antibacterial / non-antibacterial classification", "setting": "[1]", "value": "non-antibacterial (a compound with an MIC≥64 μg/mL for the BRD pathogens, M. haemolytica and P. multocida)"}
    ]},
    {"smiles": "CCCNC[C@]1(O)[C@H](C)O[C@@H](O[C@H]2[C@H](C)[C@@H](O[C@@H]3O[C@H](C)C[C@H](NC)[C@H]3Oc3ccccc3)[C@](C)(O)C[C@@H](C)CN[C@H](C)[C@@H](O)[C@](C)(O)[C@@H](CC)OC(=O)[C@@H]2C)C[C@@]1(C)OC", "note": "[Example E-112, (2R,3S,4R,5R,8R,10R,11R,12S,13S,14R)-2-ethyl-3,4,10-trihydroxy-13-(((2R,4R,5S,6S)-5-hydroxy-4-methoxy-4,6-dimethyl-5-((propylamino)methyl)tetrahydro-2H-pyran-2-yl)oxy)-3,5,8,10,12,14-hexamethyl-11-(((2S,3R,4S,6R)-6-methyl-4-(methylamino)-3-phenoxytetrahydro-2H-pyran-2-yl)oxy)-1-oxa-6-azacyclopentadecan-15-one]", "values": [
      {"measurement": "antibacterial / non-antibacterial classification", "setting": "[1]", "value": "non-antibacterial (a compound with an MIC≥64 μg/mL for the BRD pathogens, M. haemolytica and P. multocida)"}
    ]},
    {"smiles": "CCCNC[C@]1(O)[C@H](C)O[C@@H](O[C@H]2[C@H](C)[C@@H](O[C@@H]3O[C@H](C)C[C@H](NC)[C@H]3Oc3ccccc3)[C@](C)(O)C[C@@H](C)CN(CCC)[C@H](C)[C@@H](O)[C@](C)(O)[C@@H](CC)OC(=O)[C@@H]2C)C[C@@]1(C)OC", "note": "[Example E-157]", "values": [
      {"measurement": "antibacterial / non-antibacterial classification", "setting": "[1]", "value": "non-antibacterial (a compound with an MIC≥64 μg/mL for the BRD pathogens, M. haemolytica and P. multocida)"}
    ]}
  ]
}
